Reference: patent US7550469B2, “Heterocyclic amide derivatives and their use as dopamine D3 receptor ligands” (Aventis Pharmaceuticals Inc., priority 2001, dated 2009)

By UniProt entry, the sequences of proteins in these tests, tags left out.
UniProt P35348, whole entry: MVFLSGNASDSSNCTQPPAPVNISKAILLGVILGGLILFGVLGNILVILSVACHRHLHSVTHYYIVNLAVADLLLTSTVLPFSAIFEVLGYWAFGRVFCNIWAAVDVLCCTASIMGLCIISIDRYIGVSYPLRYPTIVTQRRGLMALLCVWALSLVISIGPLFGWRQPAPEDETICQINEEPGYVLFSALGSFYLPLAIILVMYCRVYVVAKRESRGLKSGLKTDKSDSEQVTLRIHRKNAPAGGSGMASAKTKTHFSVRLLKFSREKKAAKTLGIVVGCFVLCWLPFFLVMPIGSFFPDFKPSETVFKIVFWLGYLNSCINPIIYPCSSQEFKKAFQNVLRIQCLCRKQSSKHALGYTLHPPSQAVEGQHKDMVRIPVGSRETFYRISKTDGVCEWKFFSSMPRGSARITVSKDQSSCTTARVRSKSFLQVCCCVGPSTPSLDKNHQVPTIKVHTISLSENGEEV

Key:
[1] = target: cloned human alpha-1A adrenergic receptors (α1a) (Homo sapiens, UniProt P35348); assay: [3H]Prazosin binding to cloned human alpha-1A adrenergic receptors expressed in CHO cells; details: read-out: h-α1 Ki, piperazines (n = 1) vs homopiperazines (n = 2)
Text: ^3H]PRAZOSIN BINDING TO CLONED HUMAN ALPHA-1A ADRENERGIC RECEPTORS (α1a) EXPRESSED IN CHINESE HAMSTER OVARY CELLS (CHO)
Purpose: This in vitro assay is designed as a screen to identify compounds displaying a affinity for the human α1a adrenoceptor subtype expressed in the membrane fragments of CHO cells. The assay measures the ability of the test compounds to displace [^3H] prazosin from α1a sites. • The identification of multiple vascular α1-addrenoceptors (α1a, α1b, α1d) in vitro has provided impetus to define the role(s) of these subtypes in cardiovascular regulation in vivo (Vargas and Gorman, 1995). […] Prazosin is a potent antagonist of the human α1a-adrenoceptor subtype, which has been cloned and is expressed in the membrane fragments of CHO cells. hα1a Receptor: The cloning of the human α1a cDNA was accomplished first by screening a human prostate cDNA library (Clontech), from which a portion of the coding region was obtained. This DNA fragment was then used to screen a human leukocyte genomic library (Clontech), and the rest of the coding sequence was obtained. Later these two fragments were spliced together. The entire coding sequence was then fully sequenced including matching PCR sequence with original genomic coding sequence, thus ensuring splice sites were joined correctly (Schwinn et al., 1995). Once sequenced, the gene was subcloned into the expression vector pcDNA3 (Invitrogen). Plasmid DNA was then used for transfection into CHO cells and G418 resistant clones were isolated. A clone expressing high levels of the hα1a receptor (as determined by mRNA and receptor binding data) was chosen and pharmacologically characterized. Culture Media: Media Ingredients for Adherent α1a expressing CHO Culture: • A. HAM's F-12 (Cellgro) • B. 10% 0.2 micron filtered Fetal Bovine Serum (FBS)(Cellgro) • C. 1% 0.2 micron filtered Penicillin-Streptomycin (Celigro) • D. G418 0.2 micron filtered (Geneticin 400 μg/ml)(Cellgro) • Cells are cultured using established methods and procedures in either 150×25 mm culture plates (scale up to 100 plates) or a combination of these plates and 70 roller bottles. One culturing/harvest cycle typically requires 2 weeks and yields between 100-400 mg protein. Plates or bottles are incubated at 37° C.+5% CO2. Storage: Cells are harvested by mechanical scraping, washed using PBS, collected in 250 ml Corning polypropylene centrifuge tubes, spun down (1500RPM) and resuspended in dH2O 10% DMSO (final volume per harvest is approximately 50 ml). Protein determination is made using the Biorad DC Assay Kit. […]
Assay Requirement: 0.5 cryovials per 96 well plate (assay volume=200 μl/well) [^3H]-Ligand: [7-methoxy-^3H]-Prazosin: 1.0 nM (NEN, NET-823) • 70-87 Ci/mmol Materials: Phentolamine mesylate (Research Biochemicals Int. #P-131) • 96 well flat bottom plates (Beckman) • Unifilter GF/B Plate (Packard) • Polyethylenimine (Sigma #P-3134) • TomTec or Packard Filtermate 196 Cell Harvesters • Packard TopCount Scintillation Counter Buffers: A: 50 mM Tris HCl; 0.1% ascorbate, pH 7.7 (incubation buffer) • B: 50 mM Tris HCl; pH 7.7 (wash buffer) Procedure: Assay additions are as follows (in the order indicated): • Total Binding=50 μl buffer A+50 μl [^3H]prazosin+100 μl membrane • Nonsp. Bd.=50 μl 10 μM phentolamine+50 μl [^3H]prazosin+100 μl membrane • Test Cpd.=50 μl compound+50 μl [^3H]prazosin+100 μl membrane • Compounds to be evaluated are weighed out to yield a 10 mM stock solution in DMSO in a 24 well polystyrene plate. […]

[2] = tested on: Alpha-1 adrenergic receptors from rat brain cortex; assay: [3H]Prazosin binding to alpha-1 adrenergic receptors from rat brain cortex (Protocol 4); details: Inh @ 1 μM
Text: [^3H]Prazosin Binding to Alpha-1 Adrenergic Receptors from Rat Brain Cortex
Objective: This in vitro assay is designed as a screen to identify compounds displaying a affinity for the a, adrenoceptor subtype in membranes from rat cortex. It measures the ability of the test compounds to displace [^3H]prazosin from the α1 sites.
Membrane Preparation: Rat brain tissue can be obtained from either fresh (male Wistar rats; 200-250 g) or frozen (male Sprague-Dawley 200-250 g from Harlan; cat. #BT-403) stocks. The cortex is dissected, homogenized in 50 vol (wet weight) ice-cold 50 mM Tris buffer (pH 7.7 at 25° C.). The homogenate is centrifuged at 48,000 g for 10 min, the pellet is resuspended in 50 mM Tris buffer and centrifuged a second time. The second pellet (P2) is resuspended to yield a concentration of 115 mg wet weight per 10 ml. […] Membranes should be mixed just before addition to ensure an even suspension. […] Total binding and nonspecific binding are determined in quadruplicate. […] Note: The radioactivity should be prepared just before the additions are made so that it is not allowed to sit on the bench for very long. • Packard GF/B Plate Pretreatment: The filter plates are presoaked for at least 30 min in ice cold Buffer B containing 0.05% polyethyleneimine (200 μl/200 ml) to maximize filtration efficiency and minimize filter blank binding. • Incubation & Filtration: Once buffer, compounds, [^3H]prazosin and membrane have been added (and mixed), the 96 well plates are incubated for 40 min at 37° C. and spaced 3-5 min apart. […] Using Packard film, each plate is heat sealed prior to being counted in a Packard Topcount Scintillation counter. […]

Ki [1] | r-α1 % Inh [2] | SMILES
136 nM | – | O=C(NCCCCN1CCCN(c2csc3cc(F)ccc23)CC1)c1ccc(C(F)(F)F)cc1 [S9818147]
53.4 nM | 47% | O=C(NCCCCN1CCCN(c2csc3cc(F)ccc23)CC1)c1ccc2[nH]ccc2c1 [S977824]
35 nM | – | COc1cccc(CC(=O)NCCCCN2CCCN(c3csc4cc(F)ccc34)CC2)c1 [S982510]
111 nM | 34% | O=C(NCCCCN1CCCN(c2csc3cc(F)ccc23)CC1)c1c[nH]c2ccccc12 [S977822]
598 nM | 0% | O=C(NCCCCN1CCCN(c2csc3cc(F)ccc23)CC1)c1cc2ccccc2[nH]1 [S977818]
